Only a part is listed here, and it is no random draw. Active and inactive are the calls of the source. Cut-off read from the data, not from the text of the source: active = inhibition above about 19%; inactive = the rest.
The compounds below were run on T-cell receptor (TCR) (assay: small molecules blocking TCR binding to CD3 – biochemical, fluorescence, TAMRA-labeled TCR probe, primary screen (AID 651800;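 note: recombinant mutant TCR 2C K166C tagged with TAMRA read by polarization; 0% = receptor in buffer alone and 100% = receptor with positive control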)). Conditions: at 9.4 µM, stronger effect = higher value.
In the case of O=[As](O)(c1ccccc1)c1ccc(O)cc1, the inhibition is reported as inactive: -0.44%. For O=[N+]([O-])c1ncn(CCn2cnc([N+](=O)[O-])n2)n1, the inhibition was inactive: -0.55%. For CC(=O)NC(SC(=S)N(C)C)C(Cl)(Cl)Cl (centres undefined), the inhibition was inactive: 2.58%. In the case of O=P1(N(CCCl)CCCl)OCCC2CCCCN21 (centres undefined), the inhibition is reported as inactive: -10.4%. In the case of Cc1ccc(NP(=O)(Oc2cccc(C)c2)Oc2cccc(C)c2)nc1, the inhibition is reported as inactive: -3.28%. c1ccc(-c2nn[nH]n2)c(-c2nn[nH]n2)c1 was tested, and the inhibition was inactive: -2.5%. With CCNC(=S)/N=C(\N)N[N+](=O)[O-] the inhibition was inactive: -4.48%. O=C(NC1CCS(=O)(=O)C1)NP(=S)(Oc1ccccc1)Oc1ccccc1 (centres undefined) was tested, and the inhibition was inactive: -4.23%. For O=c1c2cc([N+](=O)[O-])ccc2[nH]c2c([N+](=O)[O-])cc([N+](=O)[O-])cc12, the inhibition was inactive: -15.3%. CN(C)C(=O)Oc1noc2ccccc12 was tested, and the inhibition was inactive: -9.2%. In the case of CC(NC(=O)COC(=O)C(O)(c1ccccc1)c1ccccc1)c1ccccc1 (centres undefined), the inhibition is reported as inactive: -6.3%. Cc1ccccc1OP(=O)(Nc1ccccn1)Oc1ccccc1C was tested, and the inhibition was inactive: -6.48%. For CCC(=O)N1C2C3N(C(=O)CC)C1C1N(C(=O)CC)C(C(N1C(=O)CC)N3C(=O)CC)N2C(=O)CC, the inhibition was inactive: 3.51%. With O=C(OC1CN2CCC1CC2)c1ccccc1 (centres undefined) the inhibition was inactive: -4.55%. Cc1ccc(OP(=O)(Nc2ccccn2)Oc2ccc(C)cc2)cc1 was tested, and the inhibition was inactive: 4.34%. In the case of CC(=O)NC(SC(=S)N(CC(C)C)CC(C)C)C(Cl)(Cl)Cl (centres undefined), the inhibition is reported as inactive: -9.2%. In the case of COC(=O)c1cc2c(s1)N=C(c1ccccc1)N(C)P2(=O)N1CCOCC1 (centres undefined), the inhibition is reported as inactive: 5.09%. With CC(C)(C)C(=O)NC(Sc1ccccc1)C(Cl)(Cl)Cl (centres undefined) the inhibition was inactive: 4.49%. For CCc1cc(O)c([N+](=O)[O-])c(C)c1[N+](=O)[O-], the inhibition was inactive: 2%. With CCOc1ccc(C2=NCC(CBr)S2)cc1 (centres undefined) the inhibition was inactive: -2.21%. In the case of O=P1(Nc2nc3ccc(Cl)cc3s2)COc2ccccc2O1 (centres undefined), the inhibition is reported as inactive: -3.02%. For CC(=O)Nc1ccc(Oc2c([N+](=O)[O-])cc([N+](=O)[O-])cc2[N+](=O)[O-])cc1, the inhibition was inactive: 11.5%. With CC(=O)Nc1ccc([As](=O)(O)O)c(O)c1 the inhibition was inactive: 4.48%. With C[C@H]1OP(=O)(Oc2ccccc2)C[C@@H]2O[C@@H]21 (some centres undefined) the inhibition was inactive: -4.63%. With C[C@@H]1C=CCP(=O)(Oc2ccccc2)O1 (some centres undefined) the inhibition was inactive: -2.85%. For Cc1ccccc1CN(C)C(=O)COC(=O)C(O)(c1ccccc1)c1ccccc1, the inhibition was inactive: -2.12%. COC(=O)C1(C)COP(=O)(NCc2ccccc2)OC1 (centres undefined) was tested, and the inhibition was inactive: 1.19%. For CC(=O)c1ccc(N2CC2c2ccncc2)cc1 (centres undefined), the inhibition was inactive: -0.16%. For N#C/C(=C\c1ccc(N(CCBr)CCBr)cc1)C(N)=O, the inhibition was inactive: -3.05%. CN1CCCC(OC(=O)C(c2ccccc2)c2ccccc2)C1 (centres undefined) was tested, and the inhibition was inactive: 2.35%. Clc1ccc(Cl)c(NC2=NCC(CBr)S2)c1 (centres undefined) was tested, and the inhibition was inactive: -0.63%. For Cc1ccc(OP(=O)(Nc2nccs2)Oc2ccc(C)cc2)cc1, the inhibition was inactive: 2.25%. COc1ccccc1OP(=O)(Nc1ccc(C)cn1)Oc1ccccc1OC was tested, and the inhibition was inactive: -6.04%. With Cc1ccc(N/C(=N/P(=O)(N2CCOCC2)N2CCOCC2)N2CCOCC2)cc1 the inhibition was inactive: 6.36%. In the case of CN(C(=O)Cc1ccc(Cl)c(Cl)c1)[C@H]1CCCC[C@H]1N1CCCC1, the inhibition is reported as inactive: -4.01%. In the case of NC(=O)c1cc([N+](=O)[O-])cc([N+](=O)[O-])c1N, the inhibition is reported as inactive: 4.92%. In the case of O=C(NC(Sc1ccncn1)C(Cl)(Cl)Cl)c1ccccc1 (centres undefined), the inhibition is reported as inactive: -1.18%. Oc1ccccc1CNc1ccccn1 was tested, and the inhibition was inactive: -2.21%. In the case of Nc1cc(N)c2nonc2c1[N+](=O)[O-], the inhibition is reported as inactive: 8.94%. CC(C)CC(=O)NC(Sc1ccc(Cl)cc1)C(Cl)(Cl)Cl (centres undefined) was tested, and the inhibition was inactive: -0.06%. CCn1c(=O)n(C2CCN(CC3CCCCCCC3)C[C@H]2CO)c2ccccc21 (some centres undefined) was tested, and the inhibition was inactive: -1.3%. With Cc1ccc(NP(=O)(Oc2ccccc2F)Oc2ccccc2F)nc1 the inhibition was inactive: 4.15%. For CN(C(=O)Cc1ccc(Cl)c(Cl)c1)[C@H]1CCCC[C@@H]1N1CCCC1, the inhibition was inactive: -4.3%. In the case of Cc1cc(SC(NC(=O)c2ccc(F)cc2)C(Cl)(Cl)Cl)ncn1 (centres undefined), the inhibition is reported as inactive: 2.52%. With CCOP(=O)(Nc1ccccc1)OCC the inhibition was inactive: 0.33%. With O=P(Nc1nc2ccc(Cl)cc2s1)(c1ccccc1)c1ccccc1 the inhibition was inactive: 6.24%. CN(C)P(=O)(N(C)C)n1c(Nc2ccccc2)nnc1-c1ccccc1 was tested, and the inhibition was inactive: 3.1%. In the case of CCCC1OP(N)(=O)OCC1CC (centres undefined), the inhibition is reported as inactive: -1.44%. CC(=O)Nc1ccc([As](=O)(O)O)cc1 was tested, and the inhibition was inactive: -5.38%. O=C(O)c1ccccc1[As](=O)(O)O was tested, and the inhibition was inactive: 1.72%. Nc1cccc2ccc([As](=O)(O)O)cc12 was tested, and the inhibition was inactive: 13.7%. For CCN(N=Nc1nonc1N)c1nonc1N, the inhibition was inactive: -5.31%. With CN(C(=O)Cc1ccccc1)C1CC[C@@]2(CCCO2)C[C@@H]1N1CCCC1 (some centres undefined) the inhibition was inactive: 0.34%. In the case of O=C(Nc1cc([As](=O)(O)O)ccc1O)c1ccccc1, the inhibition is reported as inactive: 1.5%. O=P1(N(CCCl)CCCl)OCCCS1 (centres undefined) was tested, and the inhibition was inactive: -0.12%. In the case of O=C(O)CNc1ccc([As](=O)(O)O)cc1, the inhibition is reported as inactive: -6.86%. For COC(=O)C1(C)COP(=O)(Nc2ccccc2)OC1 (centres undefined), the inhibition was inactive: -7.23%. In the case of O=[N+]([O-])c1cccc(NC2=NCC(CBr)S2)c1 (centres undefined), the inhibition is reported as inactive: -9.68%. In the case of O=[N+]([O-])c1ncn(CCn2ncnc2[N+](=O)[O-])n1, the inhibition is reported as inactive: -10.6%. For CC(C)(C)C(=O)NC(Sc1ccncn1)C(Cl)(Cl)Cl (centres undefined), the inhibition was inactive: 2.57%. With CCc1nc2c(n1)c1c(non1O)c1c2no[n+]1[O-] the inhibition was inactive: -1.82%. With O=[N+]([O-])c1cc([N+](=O)[O-])c(CCNc2ccccc2)c([N+](=O)[O-])c1 the inhibition was inactive: -7.08%. Cc1ccc(NP(=O)(Oc2ccccc2)Oc2ccccc2)nc1 was tested, and the inhibition was inactive: 2.49%. In the case of O=[N+]([O-])c1cccc2n[nH]nc12, the inhibition is reported as inactive: -2.58%. CC(=O)N1C2C3N(C(C)=O)C1C1N(C(C)=O)C(C(N1C(C)=O)N3C(C)=O)N2C(C)=O was tested, and the inhibition was inactive: -3.65%. For COc1ccc(C2=NCC(CBr)S2)cc1 (centres undefined), the inhibition was inactive: 1.6%. CC1CCN(C(=O)Oc2c(Cl)cc(Cl)c3cccnc23)CC1 was tested, and the inhibition was inactive: 3.58%. In the case of c1cc(-c2nn[nH]n2)ccc1-c1nn[nH]n1, the inhibition is reported as inactive: -1.01%. In the case of CN(C)C(=O)OCCc1n(C)cc[n+]1C, the inhibition is reported as inactive: 2.82%. For CC(C)c1nc(Nc2ccccc2)n(P(=O)(N(C)C)N(C)C)n1, the inhibition was inactive: 2.06%. For CC(C)=N/N=C(\N)N[N+](=O)[O-], the inhibition was inactive: 2.86%. With CCN(/C(=N/P(=O)(N1CCOCC1)N1CCOCC1)N1CCOCC1)c1ccc(OC)cc1 the inhibition was inactive: 1.76%. For C[N+]1=C2C=CC=CC=C2SC12C([N+](=O)[O-])=CC([N+](=O)[O-])=C[C-]2[N+](=O)[O-] (centres undefined), the inhibition was inactive: 8.54%. Nc1ccc([As](=O)(O)c2ccc(N)cc2)cc1 was tested, and the inhibition was inactive: -13.1%.

— PubChem BioAssay AID651800 (The Scripps Research Institute Molecular Screening Center, 2012)
